Data reported in ChEMBL document CHEMBL4002590, “Design and Synthesis of a Pan-Janus Kinase Inhibitor Clinical Candidate (PF-06263276) Suitable for Inhaled and Topical Delivery for the Treatment of Inflammatory Diseases of the Lungs and Skin” (J Med Chem, 2017).

By UniProt entry, the sequences of proteins in these tests, tags left out. Where a name states a change or a piece, a line headed by the entry shows the natural chain unless it says otherwise.
UniProt P23458: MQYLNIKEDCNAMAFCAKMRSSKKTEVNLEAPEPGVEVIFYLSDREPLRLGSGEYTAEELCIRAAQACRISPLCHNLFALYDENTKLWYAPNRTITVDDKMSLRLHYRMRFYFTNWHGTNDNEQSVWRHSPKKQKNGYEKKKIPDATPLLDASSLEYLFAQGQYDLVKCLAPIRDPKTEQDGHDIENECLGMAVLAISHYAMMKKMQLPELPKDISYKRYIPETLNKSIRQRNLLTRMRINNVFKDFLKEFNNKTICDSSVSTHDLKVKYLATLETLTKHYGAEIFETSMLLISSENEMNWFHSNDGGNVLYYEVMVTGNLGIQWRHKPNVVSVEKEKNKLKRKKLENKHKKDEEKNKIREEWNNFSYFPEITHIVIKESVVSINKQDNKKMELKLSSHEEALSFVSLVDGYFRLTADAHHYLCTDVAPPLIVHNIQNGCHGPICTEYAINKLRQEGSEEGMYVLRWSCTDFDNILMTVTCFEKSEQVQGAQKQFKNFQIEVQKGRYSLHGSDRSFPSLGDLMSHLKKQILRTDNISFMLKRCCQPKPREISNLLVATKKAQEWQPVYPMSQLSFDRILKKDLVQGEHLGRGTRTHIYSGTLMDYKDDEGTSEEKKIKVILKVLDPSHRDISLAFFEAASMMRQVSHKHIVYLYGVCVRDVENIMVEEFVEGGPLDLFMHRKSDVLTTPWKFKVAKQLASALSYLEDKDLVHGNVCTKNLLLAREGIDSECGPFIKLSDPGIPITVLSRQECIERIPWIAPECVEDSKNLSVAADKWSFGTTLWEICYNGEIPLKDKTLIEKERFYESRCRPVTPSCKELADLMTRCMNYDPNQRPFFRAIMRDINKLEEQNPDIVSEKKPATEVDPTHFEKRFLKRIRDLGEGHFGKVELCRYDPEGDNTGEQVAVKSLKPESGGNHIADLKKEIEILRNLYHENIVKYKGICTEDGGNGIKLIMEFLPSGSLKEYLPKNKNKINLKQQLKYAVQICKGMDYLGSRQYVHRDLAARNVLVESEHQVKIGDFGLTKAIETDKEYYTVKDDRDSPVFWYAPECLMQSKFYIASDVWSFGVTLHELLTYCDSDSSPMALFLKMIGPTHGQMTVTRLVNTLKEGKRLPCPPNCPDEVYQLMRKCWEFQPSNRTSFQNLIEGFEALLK
UniProt P52333: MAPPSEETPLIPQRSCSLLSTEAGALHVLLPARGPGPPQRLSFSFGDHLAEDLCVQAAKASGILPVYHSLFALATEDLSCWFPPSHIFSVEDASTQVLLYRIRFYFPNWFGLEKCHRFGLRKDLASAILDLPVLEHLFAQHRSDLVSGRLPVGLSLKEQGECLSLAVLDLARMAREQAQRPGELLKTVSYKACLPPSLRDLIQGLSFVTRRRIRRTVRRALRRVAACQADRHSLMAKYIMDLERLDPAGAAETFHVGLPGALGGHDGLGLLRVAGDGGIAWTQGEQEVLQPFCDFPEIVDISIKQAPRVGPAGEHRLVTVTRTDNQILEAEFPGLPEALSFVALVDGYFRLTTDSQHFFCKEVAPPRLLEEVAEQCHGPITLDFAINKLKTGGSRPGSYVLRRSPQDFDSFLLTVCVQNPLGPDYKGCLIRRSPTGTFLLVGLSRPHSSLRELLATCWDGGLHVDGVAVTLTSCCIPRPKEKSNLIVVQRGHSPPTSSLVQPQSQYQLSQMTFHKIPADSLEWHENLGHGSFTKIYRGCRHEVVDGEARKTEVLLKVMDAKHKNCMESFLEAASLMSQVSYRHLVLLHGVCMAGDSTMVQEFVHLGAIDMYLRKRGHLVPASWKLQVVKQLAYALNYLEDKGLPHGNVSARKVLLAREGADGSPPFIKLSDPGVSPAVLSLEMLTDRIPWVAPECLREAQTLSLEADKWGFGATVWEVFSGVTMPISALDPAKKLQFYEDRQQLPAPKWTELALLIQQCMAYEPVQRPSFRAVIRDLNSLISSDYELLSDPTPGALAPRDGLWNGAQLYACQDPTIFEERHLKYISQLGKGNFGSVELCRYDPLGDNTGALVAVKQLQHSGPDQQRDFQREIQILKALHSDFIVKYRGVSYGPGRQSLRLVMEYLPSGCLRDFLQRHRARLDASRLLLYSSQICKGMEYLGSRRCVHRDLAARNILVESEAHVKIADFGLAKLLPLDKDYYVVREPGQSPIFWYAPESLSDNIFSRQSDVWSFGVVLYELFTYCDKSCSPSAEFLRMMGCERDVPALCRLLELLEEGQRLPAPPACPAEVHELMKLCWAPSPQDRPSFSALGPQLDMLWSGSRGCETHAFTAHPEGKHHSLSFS
UniProt O60674: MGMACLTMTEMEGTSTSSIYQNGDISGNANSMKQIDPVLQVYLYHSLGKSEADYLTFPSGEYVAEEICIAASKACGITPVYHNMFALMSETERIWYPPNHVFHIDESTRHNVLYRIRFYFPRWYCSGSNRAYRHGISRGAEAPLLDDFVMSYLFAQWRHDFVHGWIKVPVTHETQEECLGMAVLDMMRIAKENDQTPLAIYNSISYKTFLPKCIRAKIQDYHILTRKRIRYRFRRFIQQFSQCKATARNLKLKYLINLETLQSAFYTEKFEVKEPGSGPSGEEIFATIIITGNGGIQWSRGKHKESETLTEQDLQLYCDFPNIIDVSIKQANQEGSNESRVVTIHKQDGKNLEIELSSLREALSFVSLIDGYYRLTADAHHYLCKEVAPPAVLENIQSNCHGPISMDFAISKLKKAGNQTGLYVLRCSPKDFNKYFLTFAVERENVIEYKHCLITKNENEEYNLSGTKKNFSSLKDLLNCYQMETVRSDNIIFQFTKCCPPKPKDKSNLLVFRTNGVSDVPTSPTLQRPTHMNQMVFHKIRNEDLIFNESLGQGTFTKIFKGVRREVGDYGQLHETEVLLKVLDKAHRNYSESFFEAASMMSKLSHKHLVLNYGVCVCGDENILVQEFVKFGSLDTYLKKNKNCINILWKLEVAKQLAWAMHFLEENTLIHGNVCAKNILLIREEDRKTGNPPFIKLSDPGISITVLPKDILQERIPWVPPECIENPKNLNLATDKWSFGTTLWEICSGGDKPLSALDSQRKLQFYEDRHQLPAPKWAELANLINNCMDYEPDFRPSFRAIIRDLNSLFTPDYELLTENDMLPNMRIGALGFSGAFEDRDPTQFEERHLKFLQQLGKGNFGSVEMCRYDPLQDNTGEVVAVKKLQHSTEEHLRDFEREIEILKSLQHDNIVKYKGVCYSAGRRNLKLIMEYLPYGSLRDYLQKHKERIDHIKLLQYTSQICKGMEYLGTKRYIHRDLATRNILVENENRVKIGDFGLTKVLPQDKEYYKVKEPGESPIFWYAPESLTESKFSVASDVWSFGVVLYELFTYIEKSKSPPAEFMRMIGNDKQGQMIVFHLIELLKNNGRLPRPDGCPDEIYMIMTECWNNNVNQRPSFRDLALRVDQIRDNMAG
UniProt P29597: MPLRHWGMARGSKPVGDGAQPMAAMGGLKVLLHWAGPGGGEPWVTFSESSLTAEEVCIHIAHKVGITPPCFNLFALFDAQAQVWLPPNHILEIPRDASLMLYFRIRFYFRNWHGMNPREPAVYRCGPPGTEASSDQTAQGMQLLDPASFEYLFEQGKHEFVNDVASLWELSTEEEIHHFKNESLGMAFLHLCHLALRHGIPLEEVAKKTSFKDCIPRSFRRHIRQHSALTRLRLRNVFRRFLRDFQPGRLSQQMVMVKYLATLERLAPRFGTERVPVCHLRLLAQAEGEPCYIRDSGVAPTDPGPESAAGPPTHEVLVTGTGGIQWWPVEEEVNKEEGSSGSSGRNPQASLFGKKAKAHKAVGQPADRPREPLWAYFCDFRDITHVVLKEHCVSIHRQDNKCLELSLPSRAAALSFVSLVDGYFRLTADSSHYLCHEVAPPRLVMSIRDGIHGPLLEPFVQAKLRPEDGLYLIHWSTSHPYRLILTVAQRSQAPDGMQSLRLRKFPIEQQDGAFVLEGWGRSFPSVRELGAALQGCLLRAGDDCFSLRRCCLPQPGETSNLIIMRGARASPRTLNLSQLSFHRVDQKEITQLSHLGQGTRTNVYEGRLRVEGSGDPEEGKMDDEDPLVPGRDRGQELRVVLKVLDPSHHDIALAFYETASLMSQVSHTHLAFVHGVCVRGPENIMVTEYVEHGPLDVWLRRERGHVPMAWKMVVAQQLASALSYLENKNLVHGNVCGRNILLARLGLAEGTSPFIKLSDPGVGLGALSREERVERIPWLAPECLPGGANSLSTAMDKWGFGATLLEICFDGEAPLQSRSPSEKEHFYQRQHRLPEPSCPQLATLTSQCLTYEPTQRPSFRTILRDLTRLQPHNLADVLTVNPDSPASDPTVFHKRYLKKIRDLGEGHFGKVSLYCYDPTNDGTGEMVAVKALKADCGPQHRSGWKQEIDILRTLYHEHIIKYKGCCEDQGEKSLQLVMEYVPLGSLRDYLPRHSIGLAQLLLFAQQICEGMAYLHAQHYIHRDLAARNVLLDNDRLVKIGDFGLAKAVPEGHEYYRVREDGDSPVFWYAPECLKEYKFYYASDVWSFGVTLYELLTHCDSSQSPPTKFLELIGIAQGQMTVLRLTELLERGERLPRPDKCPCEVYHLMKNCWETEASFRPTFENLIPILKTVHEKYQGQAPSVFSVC

Experiments:
[1] = molecular target: Tyrosine-protein kinase JAK1 (Homo sapiens, UniProt P23458); experiment: Inhibition of GST tagged human recombinant JAK1 catalytic domain expressed in baculovirus using peptide substrate preincubated for 60 mins followed by substrate addition and measured after 60 mins by microfluidic assay
Procedure, shortened: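 Caliper microfluidic assay of peptide-substrate phosphorylation by the relevant JAK enzyme, run at 1 mM ATP; IC50 values are geometric means of at least three determinations.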

JAK3/JAK1 = JAK3/JAK1 (Homo sapiens, UniProt P23458+P52333); experiment: Inhibition of JAK1/JAK3 in human whole blood assessed as inhibition of IL-4 induced STAT6 phosphorylation preincubated for 45 mins followed by Il-4 addition and measured after 20 mins by flow cytometric analysis; type: protein-complex assay
JAK2/JAK1 = JAK2/JAK1 (Homo sapiens, UniProt O60674+P23458); experiment: Inhibition of JAK1/JAK2 in human whole blood assessed as inhibition of IL-6 induced STAT3 phosphorylation preincubated for 45 mins followed by Il-6 addition and measured after 20 mins by flow cytometric analysis; type: protein-complex assay
JAK1/TYK2 [2] = molecular target: T1, JAK1/TYK2 (Homo sapiens, UniProt P23458+P29597); experiment: Inhibition of JAK1/TYK2 in human whole blood lymphocytes assessed as inhibition of IFNalpha induced STAT3 phosphorylation preincubated for 45 mins followed by IFNalpha addition and measured after 20 mins by flow cytometric analysis; type: cell-based
JAK1/TYK2 [3] = molecular target: T1, JAK1/TYK2; type: cell-based
Janus Kinase (JAK) = Janus Kinase (JAK) (Homo sapiens, UniProt P52333+P23458+O60674+P29597); experiment: Inhibition of JAK in human PBMC assessed as reduction in human recombinant IL-2/mouse anti-human CD3 stimulated IFNgamma production preincubated for 1 hr followed by IL2/CD3 stimulation measured after 18 hrs by ELISA
Procedure, shortened: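 Primary PBMCs stimulated with IL-2; inhibition of IFNγ release measured. IC50 values are geometric means of at least three determinations.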

Q: `CCc1cc(O)c(F)cc1-c1ccc2c(-c3nc4c([nH]3)CCN(C(=O)c3cnc(N5CCCCC5)cn3)C4)n[nH]c2c1` was tested. Which IC50 [1] did it give?
A: The IC50 was 0.0022 µM.

Q: What about the IC50 (JAK3/JAK1) of the same molecule?
A: The IC50 was 1.8 µM.

Q: And the IC50 (JAK2/JAK1)?
A: Its IC50 is 2.1 µM.

Q: What about the IC50 (JAK1/TYK2 [2]) of the same molecule?
A: The IC50 was 0.62 µM.

Q: What about the IC50 (JAK1/TYK2 [3]) of the same molecule?
A: The IC50 was 4.2 µM.

Q: What about the IC50 (Janus Kinase (JAK)) of the same molecule?
A: Its IC50 is 0.0703 µM.
